Measurements taken from patent US5266599A, “Use of (+)-1-[(3,4,5-trimethoxy)-benzyloxymethyl]-1-phenyl-N,N-dimethyl-n-propy lamine to increase gastric discharge in a subject” (priority 1989, dated 1993).

Protein sequences, listed by entry. Tags and fused reporters are not part of them. Lines headed by an entry give the natural chain unless they say otherwise; changes in a name come on top. Residues count along the entry.
UniProt P41144: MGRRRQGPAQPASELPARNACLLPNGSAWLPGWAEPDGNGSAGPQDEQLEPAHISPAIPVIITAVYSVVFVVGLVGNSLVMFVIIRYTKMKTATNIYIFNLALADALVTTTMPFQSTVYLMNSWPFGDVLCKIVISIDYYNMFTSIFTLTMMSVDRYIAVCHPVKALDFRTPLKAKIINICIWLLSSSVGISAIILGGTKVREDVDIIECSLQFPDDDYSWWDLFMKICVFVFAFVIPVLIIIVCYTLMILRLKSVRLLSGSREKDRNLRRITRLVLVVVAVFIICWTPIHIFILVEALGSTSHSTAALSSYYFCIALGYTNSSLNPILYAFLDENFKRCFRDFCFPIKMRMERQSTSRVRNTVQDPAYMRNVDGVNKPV
UniProt A0A286XTF2, 1-366: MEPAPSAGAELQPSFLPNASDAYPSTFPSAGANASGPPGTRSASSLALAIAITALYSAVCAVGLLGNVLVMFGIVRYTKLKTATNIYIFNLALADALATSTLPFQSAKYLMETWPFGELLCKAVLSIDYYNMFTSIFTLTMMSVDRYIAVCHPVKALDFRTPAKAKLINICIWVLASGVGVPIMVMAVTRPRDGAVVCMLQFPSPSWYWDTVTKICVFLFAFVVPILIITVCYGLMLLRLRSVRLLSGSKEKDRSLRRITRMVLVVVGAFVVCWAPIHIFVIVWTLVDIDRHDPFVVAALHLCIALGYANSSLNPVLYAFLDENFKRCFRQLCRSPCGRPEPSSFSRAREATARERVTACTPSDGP

Tests used:
kappa receptor [1] = biological target: T1, kappa receptor (Cavia porcellus, UniProt P41144); settings: cited from earlier work
mu receptor = assay: Binding affinity to opiate receptor mu (inhibition of binding of a specific radioactive ligand); settings: read-out: CI50, inhibition of 50% of the binding of a specific radioactive ligand, mu receptor, racemates uncorrected
delta receptor = delta receptor (Cavia porcellus, UniProt A0A286XTF2); settings: read-out: CI50, inhibition of 50% of the binding of a specific radioactive ligand, delta receptor, racemates uncorrected
[2] = system: abdominal cramps caused by acetic acid; assay: Analgesic activity in vivo, abdominal cramps caused by intraperitoneal acetic acid (derived from Koster); settings: 50 mg/kg, orally, mice
[3] = system: opiate receptors of the kappa type in the gastric mucous membrane; settings: dog, M. Gue et al.; cited from earlier work
kappa receptor [4] = biological target: T1, kappa receptor

CN(C(=O)Cc1ccc(Cl)c(Cl)c1)[C@@H]1CCCC[C@H]1N1CCCC1 (relative stereo)
kappa receptor specificity (in words, as reported) (kappa receptor [1]): binds specifically to the kappa receptors
IC50 (mu receptor): 1.03 µM
IC50 (delta receptor): 14.6 µM
% analgesia [2]: 90.0%
gastric discharge after oral administration (in words) [3]: modify the gastric discharge by their local action
kappa receptor affinity (in words) (kappa receptor [4]; compared with the (+) enantiomer, kappa receptor only): The same applies
IC50 (kappa receptor [4]; read-out: CI50, inhibition of 50% of the binding of a specific radioactive ligand, kappa receptor, racemates uncorrected): 0.066 µM
